In ChEMBL document CHEMBL2440112, “Structure-activity relationships of the aromatic site in novel anticonvulsant pyrrolo[1,2-a]pyrazine derivatives” (Bioorg Med Chem Lett, 2013):

Species: Mus musculus
Assay: Protective index, ratio of TD50 for albino mouse minimal clonic seizure model to ED50 for albino mouse assessed as protection against 6 Hz psychomotor seizure
Type: functional

`CC[C@@H](C(N)=O)N1CCCC1=O` [LEVETIRACETAM] was tested. Which “Ratio TD50/ED50” value did it give?
Its value is over 25.8.
